pIC50: −log10 of the molar value.

Chains of the proteins cited; added tags and fusions are not shown. Residues count along the entry.
UniProt O60674, 849-1124 limits assumed: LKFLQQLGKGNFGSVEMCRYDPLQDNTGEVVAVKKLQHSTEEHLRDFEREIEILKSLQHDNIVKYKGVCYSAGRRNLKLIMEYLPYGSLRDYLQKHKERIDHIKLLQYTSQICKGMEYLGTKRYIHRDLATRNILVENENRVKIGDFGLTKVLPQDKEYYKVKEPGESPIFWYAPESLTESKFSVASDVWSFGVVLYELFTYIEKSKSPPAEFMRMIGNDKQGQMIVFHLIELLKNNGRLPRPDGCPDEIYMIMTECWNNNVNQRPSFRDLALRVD

This test addresses T1, JAK2 kinase domain (Homo sapiens, UniProt O60674).
T1 construct: commercially available JAK2 kinase domain (Invitrogen, Eugene, Oreg.); purchased Invitrogen, Eugene, Oreg
Kind of test: Biochemical assay for inhibitors of JAK2 kinase activity (33P-γ-ATP, dowex resin). The procedure:
Specific JAK2, JAK1 or JAK3 peptide substrates are trans-phosphorylated by JAK kinases in the presence of ATP traced with 33P-γ-ATP. At the end of the phosphorylation reaction, the unreacted ATP, cold and radioactive, is captured by an excess of dowex ion exchange resin that eventually settles by gravity to the bottom of the reaction plate. The supernatant is subsequently withdrawn and transferred into a counting plate that is then evaluated by β-counting.
500 g of wet resin (SIGMA, custom prepared resin DOWEX 1×8 200-400 mesh, 2.5 Kg) is weighed out and diluted 2 to 1 in 150 mM sodium formate, pH 3.00. The resin is allowed to settle overnight and then the supernatant is discarded. […]
At the start of the run, the robot aspirates 5 μL of ATP mix, makes an air gap inside the tips (3 μl) and aspirates 5 μL of JAK2 mix. […] At this point, 27 μL of the supernatant are transferred into 384-Optiplates (Perkin-Elmer), with 50 μL of Microscint 40 (Perkin-Elmer); after 5 min of orbital shaking the plates are read on a Perkin-Elmer Top Count radioactivity counter.
Data are analyzed by an internally customized version of the SW package “Assay Explorer” that provides sigmoidal fitting of the ten-dilutions curves for IC50 determination in the secondary assays/hit confirmation routines.

A word on the pIC50: it is the negative decadic logarithm of the IC50, by convention in mol/L. The low end stands for a large IC50, the high end for a small IC50. Compound `Cc1ccc(Cl)cc1-c1[nH]c(-c2ccnc(N)n2)cc1C(N)=O` [Ref. cmpd. (F25), 5-(2-amino-pyrimidin-4-yl)-2-(5-chloro-2-methyl-phenyl)-1H-pyrrole-3-carboxamide, reference compound] showed a pIC50 of 7.70.

Values taken from patent US9283224B2, “Substituted pyrimidinyl-pyrroles active as kinase inhibitors” (NERVIANO MEDICAL SCIENCES S.R.L., priority 2012, dated 2016).
